Antibody variant affinities, Ab-14 heavy chain, assay B

Data: MIT Lincoln Laboratory AlphaSeq set, Li et al. 2023, doi:10.1038/s41467-023-39022-2, as distributed in FLAb.

Target: peptide PDVDLGDISGINAS, taken from heptad repeat 2 (HR2) of SARS-CoV-2 spike.

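The parent was found by panning a naive human phage display library on the peptide. These sequences belong to a second round, designed from the earlier measurements on random variants of the parent. Group labels follow the data file (Ctrl: baseline library sampled from a position-specific scoring matrix, with some repeated check sequences; Rand: our label for a block that the file lists under HC and that is probably the random mutants of the ten best first-round binders; GP: Gaussian process model; GPLM: also part of the Gaussian process libraries; HC: hill climbing; Gen: genetic algorithm; Gibbs: Gibbs sampling; a sequence that several methods proposed may carry one label only). Affinity was read by AlphaSeq, a pooled yeast mating assay with surface-displayed partners. The frequency of each diploid, read from paired DNA barcodes, reflects how well the two displayed proteins bind. A regression on co-assayed BCL2-family reference pairs converts the normalised counts of each replicate to an apparent Kd. Each pool was mated in six replicate cultures.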

The variants keep the light chain, the linker and the frameworks of Ab-14 (scFv order VH, three GGGGS repeats, VL).
VH: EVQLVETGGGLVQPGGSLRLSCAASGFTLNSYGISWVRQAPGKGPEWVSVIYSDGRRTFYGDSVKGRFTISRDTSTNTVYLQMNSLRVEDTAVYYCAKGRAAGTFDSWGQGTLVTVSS
VL: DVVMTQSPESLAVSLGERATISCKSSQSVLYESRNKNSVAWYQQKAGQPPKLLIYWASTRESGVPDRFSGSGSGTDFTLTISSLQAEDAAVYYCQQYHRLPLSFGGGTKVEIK

Changes read parent residue, position, new residue, counted from the first residue of the VH shown.
Variants here have at most six changes.
The Kd shown is the geometric mean over detected replicates; a lower Kd is a better binder.
An entry "no signal" has no value in the source: the pair was not observed among the diploids in any replicate. This suggests poor binding but is not conclusive.
In the paper, a design with two or fewer of six values counts as a poor binder.
As a blank, each scFv also met three strains without target: over all heavy chain designs, 1% of these pairings were detected, typically at 120 nM and seldom below 7.0 nM.
A sequence measured in both rounds can read differently, since the two assays cover different ranges.

With G26K T28D G61Q A101E [GP_Gen] the result was 2.1 nM (6 of 6 replicates).
With T58K D106V [Ctrl] the result was no signal (0 of 6 replicates).
With T28E G61H A101Q [GP_Gen] the result was 4.9 nM (6 of 6 replicates).
With T28S S31D G61D A101Q [GPLM_Gen] the result was 1.1 nM (6 of 6 replicates).
With T28S S31E G61C R100P S107M [GP_HC] the result was no signal (0 of 6 replicates).
With S31D F59E [GPLM_HC] the result was 22 nM (6 of 6 replicates).
With T28A N30E G99D T104A [Ctrl] the result was no signal (0 of 6 replicates).
With T28Q F59A G99L [Ctrl] the result was 690 nM (2 of 6 replicates).
With F27D T58A F59V G61D R100Q A101L [Rand] the result was no signal (0 of 6 replicates).
With G26Y T28S A101N [GP_Gibbs] the result was no signal (0 of 6 replicates).
With T28H G61V R100K A101Q S107T [GP_Gibbs] the result was 17 nM (1 of 6 replicates).
With T28D G61S A101E [GPLM_Gibbs] the result was 470 pM (6 of 6 replicates).
With T28H G61H A101T [GPLM_Gen] the result was 58 nM (4 of 6 replicates).
With T28D R56Q S63A R100G G103C [Ctrl] the result was no signal (0 of 6 replicates).
With S31E A102G D106M [GP_HC] the result was 16 nM (6 of 6 replicates).
With L29Q I34V S63D K65R A101I [Ctrl] the result was no signal (0 of 6 replicates).
With S31D F59Q G61I S107A [GP_HC] the result was 98 nM (3 of 6 replicates).
With V50W [Ctrl] the result was no signal (0 of 6 replicates).
With R56H G103A [Ctrl] the result was no signal (0 of 6 replicates).
With F27N S31E G61T A101S [GP_HC] the result was 42 nM (6 of 6 replicates).
With T28D R100L A101N [GPLM_Gibbs] the result was 2.0 nM (6 of 6 replicates).
With N30E G103L [Ctrl] the result was no signal (0 of 6 replicates).
With N30D S31R A101T [GP_HC] the result was 3.7 nM (6 of 6 replicates).
With G26K S31E I34S R56Y G61Q R100W [Ctrl] the result was 4.2 nM (6 of 6 replicates).
With L29P N30D G103D D106L [Ctrl] the result was no signal (0 of 6 replicates).
With T28S S31W G61I A101Q [GP_HC] the result was no signal (0 of 6 replicates).
With F27Y F59S T104C [Ctrl] the result was no signal (0 of 6 replicates).
With T28S N30L S31E S63K G99Q A101S [Ctrl] the result was no signal (0 of 6 replicates).
With S53A G103Y F105N D106K [Rand] the result was no signal (0 of 6 replicates).
With T28S S31T G61A A101V [GPLM_Gen] the result was 1.5 nM (6 of 6 replicates).
With R100F A101T F105P [Ctrl] the result was no signal (0 of 6 replicates).
With S35T D62P [Ctrl] the result was no signal (0 of 6 replicates).
With T28N G61L [Ctrl] the result was 93 nM (1 of 6 replicates).
With T28D G61Q S63Q A101T [GP_Gen] the result was 2.8 nM (6 of 6 replicates).
With T28K S31E A101Q [GP_Gen] the result was 2.3 nM (6 of 6 replicates).
With F27T G61S R100E [Ctrl] the result was 22 nM (5 of 6 replicates).
With T28N S31T R100E [GPLM_Gibbs] the result was 16 nM (3 of 6 replicates).
With T104D F105G [Ctrl] the result was no signal (0 of 6 replicates).
With R56Q G61V A101V S107L [GP_Gibbs] the result was 210 nM (5 of 6 replicates).
With F27E S31D Y60M T104C [Ctrl] the result was no signal (0 of 6 replicates).
With F27E V64F K65S G99V A101P D106E [Ctrl] the result was no signal (0 of 6 replicates).

Top 3 of the variants detected in all replicates, tightest first:

changes,group,apparent Kd,seen in
T28D G61S A101E,GPLM_Gibbs,470 pM,6 of 6
T28S S31D G61D A101Q,GPLM_Gen,1.1 nM,6 of 6
T28S S31T G61A A101V,GPLM_Gen,1.5 nM,6 of 6